Reference: US20190307754A1, “PDE9 INHIBITORS FOR TREATMENT OF PERIPHERAL DISEASES” (IMARA, INC., priority 2016, published 2019)

Experiment: Blood Brain Barrier penetration (brain-to-plasma distribution)
Conditions: male CD mice, 10 mg/kg subcutaneous

In the case of `O=c1[nH]c(CN2CC(Oc3ccncc3)C2)cn2c(-c3ccc(F)cc3)ncc12`, the Brain/Plasma ratio after 30 minutes (30 min) is reported as 0.06, the “Plasma concentration after 30 minutes” value (30 min) is reported as 30 min.: 719 ng/mL and the Brain/Plasma ratio after 120 minutes (120 min) is reported as 0.08. For the same compound, the “Plasma concentration after 120 minutes” value (120 min) was 120 min.: 86 ng/mL.
